From patent US12649783B2, “Anti-MCT1 antibodies and uses thereof” (IMMUNEXT INC., priority 2018, dated 2026)

System: Tr1 cells
Experiment: ex vivo Tr1 survival
Format: cell-based, human
Protocol: Humanized NSG mice (treated with anti-MCT1) were sacrificed on d32 or other day specified, single cells suspensions were prepared from spleens, followed by bead-based enrichment of hCD3+ cells. Isolated cells were plated with the analytes (see above table) to access Tr1 survival: […]

**Q.** Which “ex vivo Tr1 survival” value does the source give for “IL-2: Recombinant Human IL2 (carrier-free), Biolegend 589104” here?
**A.** increased ex vivo Tr1 survival in a dose-dependent manner
